The values below are quoted from earlier work in patent US6492560B2, “Discrete-length polyethylene glycols” (The University of Washington, priority 1995, dated 2002).

The conditions of this series: in vivo.

“PEG-recombinant human interleukin-2: polyethylene glycol-modified recombinant human interleukin-2”: the circulating half-life result is reported as “markedly prolonged circulating half-life”.
